Literature values in PMC6805442, “Discovery of low-molecular weight anti-PD-L1 peptides for cancer immunotherapy” (Journal for Immunotherapy of Cancer, 2019).

Target: PD-L1
Conditions: read-out: KD of the PD-1/PD-L1 interaction; ref [23]; cited from earlier work
Method: Binding affinities of the discovered peptides against the recombinant human PD-L1 ECD protein were evaluated using SPR. The PD-L1 protein was immobilized on a CM5 golden chip by the direct amine coupling method. […] Even though the binding affinity of peptides are generally lower than that of antibodies, the very high affinity of antibodies may result in on-targe ...

For “PD-1: programmed death-1, natural binding partner of PD-L1”, the Kd is given as ~4 µM.
